From patent publication US20260132196A1 (Amgen, published 2026)

Biological target: T1, HUMAN CLDN-6 (UniProt P56747) (human, UniProt P56747 1-220)
T1 sequence: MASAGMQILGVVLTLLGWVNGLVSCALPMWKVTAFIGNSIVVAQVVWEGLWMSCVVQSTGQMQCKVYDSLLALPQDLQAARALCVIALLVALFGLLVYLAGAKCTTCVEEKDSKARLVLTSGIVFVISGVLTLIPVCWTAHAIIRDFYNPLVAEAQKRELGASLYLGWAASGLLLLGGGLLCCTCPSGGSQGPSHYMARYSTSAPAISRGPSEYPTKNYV
Assay: cell-based or functional assay

TDCC EC50, OAW28 cells: 65.3 pM
TDCC EC50, OVCAR-3 cells: 28.1 pM
TDCC EC50, PA-1 cells: 4.7 pM
B1: A3S/HLE-BITE I2E (SEQ ID NO: 203) (bispecific antibody)
chain: [sequence of about 100 residues not given]GGGGSGGGGSGGGGSQVQLVQSGAEVKKPGASVKVSCKASGYTFTGYYMHWVRQAPGQCLEWMGWINPNSGETNYAQKFQGRVTMTRDTSISTAYMELSRLRSDDTAVYYCARDNLIVVAPVTRDYYYYGMDVWGQGTTVTVSSSGGGGSEVQLVESGGGLVQPGGSLKLSCAASGFTFNKYAINWVRQAPGKGLEWVARIRSKYNNYATYYADAVKDRFTISRDDSKNTVYLQMNNLKTEDTAVYYCARAGNFGSSYISYWAYWGQGTLVTVSSGGGGSGGGGSGGGGSQTVVTQEPSLTVSPGGTVTIT[sequence of about 80 residues not given]FGSGTKLTVLGGGG[sequence of human IgG1 Fc with R292C N297G V302C (EU numbers) not given]GGGGSGGGGSGGGGSGGGGSGGGGSGGGGS[sequence of human IgG1 Fc with R292C N297G V302C (EU numbers) not given]
